Measurements: patent US9630961B2, “Arginine methyltransferase inhibitors and uses thereof” (Epizyme, Inc., priority 2013, dated 2017)

Sequences of proteins named here, by UniProt entry; tags and fusion partners are left off. A line that says so, or that is headed by a name, gives the form on record, which may keep a tag or linker. Residues count along the entry.
UniProt Q99873, 1-371 with tags or gaps: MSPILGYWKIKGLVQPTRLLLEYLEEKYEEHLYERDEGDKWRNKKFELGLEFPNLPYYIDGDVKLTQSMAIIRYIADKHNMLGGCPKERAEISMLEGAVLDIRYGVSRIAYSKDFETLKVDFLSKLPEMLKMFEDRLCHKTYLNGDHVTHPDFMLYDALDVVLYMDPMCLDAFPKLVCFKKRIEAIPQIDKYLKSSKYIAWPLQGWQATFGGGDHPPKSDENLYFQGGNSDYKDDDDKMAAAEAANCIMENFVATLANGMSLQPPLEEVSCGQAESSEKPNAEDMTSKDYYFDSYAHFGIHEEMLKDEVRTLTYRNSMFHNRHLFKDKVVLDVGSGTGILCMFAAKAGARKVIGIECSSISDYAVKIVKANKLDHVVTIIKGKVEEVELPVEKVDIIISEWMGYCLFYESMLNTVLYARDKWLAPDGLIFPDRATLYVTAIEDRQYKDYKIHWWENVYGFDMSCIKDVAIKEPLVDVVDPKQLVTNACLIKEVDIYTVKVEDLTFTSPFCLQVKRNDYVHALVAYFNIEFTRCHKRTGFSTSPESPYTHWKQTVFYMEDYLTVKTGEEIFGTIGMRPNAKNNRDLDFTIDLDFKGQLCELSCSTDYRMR

Target: PRMT1 (Homo sapiens, UniProt Q99873)
Assay: PRMT1 Biochemical Assay (3H-SAM Flashplate, peptide substrate)
Conditions: read-out: Biochemical IC50 PRMT1; 30 min preincubation, room temperature
Description: S-adenosylmethionine (SAM), S-adenosylhomocysteine (SAH), bicine, Tween20, dimethylsulfoxide (DMSO), bovine skin gelatin (BSG), and Tris(2-carboxyethyl)phosphine hydrochloride solution (TCEP) were purchased from Sigma-Aldrich at the highest level of purity possible. ^3H-SAM was purchase from American Radiolabeled Chemicals with a specific activity of 80 Ci/mmol. 384-well streptavidin Flashplates were purchased from PerkinElmer.
Peptide representative of human histone H4 residues 36-50 was synthesized with an N-terminal linker-affinity tag motif and a C-terminal amide cap by 21st Century Biochemicals. The peptide was purified by high-performance liquid chromatography (HPLC) to greater than 95% purity and confirmed by liquid chromatography mass spectrometry (LC-MS). The sequence was Biot-Ahx-RLARRGGVKRISGLI-amide (SEQ ID NO.: 1).
Full-length human PRMT1 isoform 1 (NM_001536.5) transcript clone was amplified from an HEK 293 cDNA library, incorporating flanking 5′ sequence encoding a FLAG tag (DYKDDDDK) (SEQ ID NO.:2) fused directly to Met 1 of PRMT1. The amplified gene was subcloned into pFastBacI (Life Technologies) modified to encode an N-terminal GST tag and a TEV cleavage sequence ([…] […] […] […]) (SEQ ID NO.:3) fused to Asp of the Flag tag of PRMT1.
Recombinant baculovirus were generated according to Bac-to-Bac kit instructions (Life Technologies). […]

Row | SMILES | IC50 [nM]
1 | CNCCN(C)Cc1c[nH]nc1-c1csc2ccccc12 | < 100
2 | CNCCN(C)Cc1c[nH]nc1-c1cncnc1 | 101 to 1000
